## Ab-14 heavy chain CDR variants: yeast mating affinities

From the AlphaSeq antibody data of Engelhart et al. 2022 (doi:10.1038/s41597-022-01779-4), copy in the FLAb collection.

Antigen: PDVDLGDISGINAS, a 14-residue peptide of the SARS-CoV-2 spike HR2 region.

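Phage display of a naive human antibody library on the peptide gave the parent. Library AAYL49 holds single substitutions and randomly drawn double and triple substitutions in the CDRs. Affinity was read by AlphaSeq, a pooled yeast mating assay with surface-displayed partners. Binding brings cells together so that they mate, and sequencing counts the barcode pairs among the diploids. A regression on co-assayed BCL2-family reference pairs converts the normalised counts of each replicate to an apparent Kd. There are three technical replicates.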

Parent scFv Ab-14: VH joined to VL by a 15-residue (Gly4Ser)3 linker. Changes lie in the heavy chain CDRs alone.
VH: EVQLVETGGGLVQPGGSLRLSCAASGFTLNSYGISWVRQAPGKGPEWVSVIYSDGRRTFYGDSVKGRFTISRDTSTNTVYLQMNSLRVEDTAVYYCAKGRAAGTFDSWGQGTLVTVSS
VL: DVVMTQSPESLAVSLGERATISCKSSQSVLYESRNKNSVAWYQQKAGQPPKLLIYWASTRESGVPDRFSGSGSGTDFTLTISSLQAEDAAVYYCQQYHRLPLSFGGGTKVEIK

The whole VH of each variant is written out. Each Kd is an estimate from the mating assay, the geometric mean of the replicates in which the pair was seen; lower is stronger. "no signal" marks a missing value. The strain was present, yet no cells mated with the target were sequenced in any replicate, which points to weak or no binding. Three control strains display no target. For library AAYL49, 15% of the pairings with them gave a signal, with a median of 11 µM and one signal in twenty below 680 nM, so weak values seen in few replicates may be background. Also given: how often the same scFv was detected with the empty control strains. For reference, the parent read 4.4 nM as the reference entry and 13 µM (one replicate of three) as a member of this library.

{"VH": "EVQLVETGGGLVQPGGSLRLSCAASGFTLNMYGISWVRQAPGKGPEWVSVIYSDGRRTLYGDSVKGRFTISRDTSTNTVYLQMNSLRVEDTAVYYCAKGRAAQTFDSWGQGTLVTVSS", "Kd": "13 µM", "seen in": "2 of 3", "empty controls": "1 of 9"}
{"VH": "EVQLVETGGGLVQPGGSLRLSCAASGFTLNSYGISWVRQAPGKGPEWVSVIYSDGRRTFYGDSVKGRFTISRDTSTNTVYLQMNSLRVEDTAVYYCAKFREAGTFDSWGQGTLVTVSS", "Kd": "8.5 µM", "seen in": "2 of 3", "empty controls": "1 of 9"}
{"VH": "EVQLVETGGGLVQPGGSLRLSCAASGFFLNSYDISWVRQAPGKGPEWVSVIYSDGRRTVYGDSVKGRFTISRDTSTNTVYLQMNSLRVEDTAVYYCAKGRAAGTFDSWGQGTLVTVSS", "Kd": "no signal", "seen in": "0 of 3", "empty controls": "0 of 9"}
{"VH": "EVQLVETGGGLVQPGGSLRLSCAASGFALNSYGISWVRQAPGKGPEWVSVIYSDGRITFYKDSVKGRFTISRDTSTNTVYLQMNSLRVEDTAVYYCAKGRAAGTFDSWGQGTLVTVSS", "Kd": "82 µM", "seen in": "2 of 3", "empty controls": "1 of 9"}
{"VH": "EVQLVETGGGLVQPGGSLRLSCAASGFTLNSYGISWVRQAPGKGPEWVSVIYSEGRRTFYGDSVKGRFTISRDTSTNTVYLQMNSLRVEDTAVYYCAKGQAAGTFDSWGQGTLVTVSS", "Kd": "17 µM", "seen in": "2 of 3", "empty controls": "0 of 9"}
{"VH": "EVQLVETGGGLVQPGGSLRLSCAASGFTVNSYNISWVRQAPGKGPEWVSVIYSDGRRTFYGDYVKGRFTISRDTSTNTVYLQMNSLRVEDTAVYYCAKGRAAGTFDSWGQGTLVTVSS", "Kd": "no signal", "seen in": "0 of 3", "empty controls": "0 of 9"}
{"VH": "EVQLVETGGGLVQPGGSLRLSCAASGFTLNSYGISWVRQAPGKGPEWVSVIYSDGRRTFKGDSVKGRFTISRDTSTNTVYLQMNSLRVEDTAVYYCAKGRPAGTLDSWGQGTLVTVSS", "Kd": "800 µM", "seen in": "2 of 3", "empty controls": "6 of 9"}
{"VH": "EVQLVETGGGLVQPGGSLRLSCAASGFTYNSYGISWVRQAPGKGPEWVSVIYYDGRRTFYGDSVFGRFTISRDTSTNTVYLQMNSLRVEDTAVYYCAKGRAAGTFDSWGQGTLVTVSS", "Kd": "410 nM", "seen in": "2 of 3", "empty controls": "2 of 9"}
{"VH": "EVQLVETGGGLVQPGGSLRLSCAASGFTLNSYGISWVRQAPGKGPEWVSVDYRDGRRTFYGDSVKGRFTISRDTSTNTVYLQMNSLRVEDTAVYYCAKGRVAGTFDSWGQGTLVTVSS", "Kd": "no signal", "seen in": "0 of 3", "empty controls": "0 of 9"}
{"VH": "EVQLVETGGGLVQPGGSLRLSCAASGRTLNSYVISWVRQAPGKGPEWVSVIYSDGRRAFYGDSVKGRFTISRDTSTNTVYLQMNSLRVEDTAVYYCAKGRAAGTFDSWGQGTLVTVSS", "Kd": "no signal", "seen in": "0 of 3", "empty controls": "0 of 9"}
{"VH": "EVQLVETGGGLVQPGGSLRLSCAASGFTLNSYGISWVRQAPGKGPEWVSVIYNDGRRTFYKDSVKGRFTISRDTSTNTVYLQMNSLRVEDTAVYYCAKGRAMGTFDSWGQGTLVTVSS", "Kd": "no signal", "seen in": "0 of 3", "empty controls": "1 of 9"}
{"VH": "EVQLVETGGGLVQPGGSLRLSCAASDFTLNSYGISWVRQAPGKGPEWVSNIYSDGRRTFYGDSVIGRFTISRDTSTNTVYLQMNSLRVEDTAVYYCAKGRAAGTFDSWGQGTLVTVSS", "Kd": "1.8 µM", "seen in": "1 of 3", "empty controls": "1 of 9"}
{"VH": "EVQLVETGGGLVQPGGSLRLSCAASGFTLNGYGISWVRQAPGKGPEWVSVIYSDGRRTFYGDLVKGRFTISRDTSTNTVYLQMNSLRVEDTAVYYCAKLRAAGTFDSWGQGTLVTVSS", "Kd": "270 nM", "seen in": "3 of 3", "empty controls": "0 of 9"}
{"VH": "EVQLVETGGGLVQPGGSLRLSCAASGFTLNSYGWSWVRQAPGKGPEWVSVIYSDGRRTFYGDLVKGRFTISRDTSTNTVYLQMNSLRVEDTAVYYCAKGWAAGTFDSWGQGTLVTVSS", "Kd": "no signal", "seen in": "0 of 3", "empty controls": "0 of 9"}
{"VH": "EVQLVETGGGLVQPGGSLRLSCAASGFTLNLYGICWVRQAPGKGPEWVSCIYSDGRRTFYGDSVKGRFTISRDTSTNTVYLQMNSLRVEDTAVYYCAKGRAAGTFDSWGQGTLVTVSS", "Kd": "29 µM", "seen in": "2 of 3", "empty controls": "8 of 9"}
{"VH": "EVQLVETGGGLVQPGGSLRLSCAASGFTLNEYGISWVRQAPGKGPEWVSVIYSDGRCTFYQDSVKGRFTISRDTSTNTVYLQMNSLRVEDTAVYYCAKGRAAGTFDSWGQGTLVTVSS", "Kd": "no signal", "seen in": "0 of 3", "empty controls": "0 of 9"}
{"VH": "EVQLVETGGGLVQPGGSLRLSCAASGHTLNSMGISWVRQAPGKGPEWVSVIYSDGRRTFYGDSVKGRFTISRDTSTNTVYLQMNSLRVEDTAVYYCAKGRAAGTFDSWGQGTLVTVSS", "Kd": "16 µM", "seen in": "2 of 3", "empty controls": "2 of 9"}
{"VH": "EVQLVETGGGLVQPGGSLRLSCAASAFTLNSYGISWVRQAPGKGPEWVSVIYSDGRRTFYGPSVKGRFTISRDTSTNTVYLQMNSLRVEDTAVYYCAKGRAAGTGDSWGQGTLVTVSS", "Kd": "590 nM", "seen in": "3 of 3", "empty controls": "1 of 9"}
{"VH": "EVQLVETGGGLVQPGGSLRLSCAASPFTLNSYGISWVRQAPGKGPEWVSVIYSDPRRTFYGDFVKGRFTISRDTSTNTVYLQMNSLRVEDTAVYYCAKGRAAGTFDSWGQGTLVTVSS", "Kd": "770 µM", "seen in": "1 of 3", "empty controls": "0 of 9"}
{"VH": "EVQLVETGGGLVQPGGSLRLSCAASGFTLISDGISWVRQAPGKGPEWVSVIYSDGRRTFYGDSVKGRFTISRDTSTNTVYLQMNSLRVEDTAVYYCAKGRAAGTFDSWGQGTLVTVSS", "Kd": "65 µM", "seen in": "2 of 3", "empty controls": "4 of 9"}
{"VH": "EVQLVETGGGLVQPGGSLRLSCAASGFGLNSYGISWVRQAPGKGPEWVSVIYSDGRRTFYGYSVKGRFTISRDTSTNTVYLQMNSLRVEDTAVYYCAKGRAANTFDSWGQGTLVTVSS", "Kd": "280 nM", "seen in": "3 of 3", "empty controls": "0 of 9"}
{"VH": "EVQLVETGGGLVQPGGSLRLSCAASGWTLNSYGISWVRQAPGKGPEWVSNIYSDIRRTFYGDSVKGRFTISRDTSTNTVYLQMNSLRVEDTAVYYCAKGRAAGTFDSWGQGTLVTVSS", "Kd": "2.1 µM", "seen in": "1 of 3", "empty controls": "0 of 9"}
{"VH": "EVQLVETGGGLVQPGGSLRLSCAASGFTLNSYGISWVRQAPGKGPEWVSVIYSDGRITFYGDSLKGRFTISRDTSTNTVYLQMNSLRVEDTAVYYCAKGRAAGTGDSWGQGTLVTVSS", "Kd": "no signal", "seen in": "0 of 3", "empty controls": "1 of 9"}
{"VH": "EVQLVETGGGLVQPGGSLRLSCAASGFTLNSYGISWVRQAPGKGPEWVSQIYSDGRQTFYGDSVKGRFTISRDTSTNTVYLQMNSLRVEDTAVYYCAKGRAAGTFTSWGQGTLVTVSS", "Kd": "no signal", "seen in": "0 of 3", "empty controls": "0 of 9"}
{"VH": "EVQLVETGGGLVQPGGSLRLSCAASGFTLNSYWISWVRQAPGKGPEWVSVIYSDGRRQFYGDSVKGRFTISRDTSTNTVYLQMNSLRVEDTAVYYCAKGRAAGTFDMWGQGTLVTVSS", "Kd": "no signal", "seen in": "0 of 3", "empty controls": "3 of 9"}
{"VH": "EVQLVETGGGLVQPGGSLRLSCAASGFTLNSYGISWVRQAPGKGPEWVSVIYGDGRRTFYQDSVKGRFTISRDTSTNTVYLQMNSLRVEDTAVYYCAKGRAAGTFGSWGQGTLVTVSS", "Kd": "no signal", "seen in": "0 of 3", "empty controls": "0 of 9"}